Among the data in ChEMBL document CHEMBL6127063, “N-substituted-4-(pyridin-4-ylalkyl)piperazine-1-carboxamides and related compounds as Leishmania CYP51 and CYP5122A1 inhibitors” (Bioorg Med Chem, 2024) are IC50 values, retold here.

The assay in a line: Inhibition of full length his-tagged recombinant Leishmania donovani CYP51-32c.

`COc1ccc(CCN2CCN(C(=O)Nc3ccc(OCc4cc(C(F)(F)F)cc(C(F)(F)F)c4)cc3)CC2)cc1`: the IC50 was over 100 µM.

What is called IC50 is the midpoint of a concentration-inhibition curve.
